Molecular target: 5-hydroxytryptamine receptor 1A (Rattus norvegicus, UniProt P19327)
Test: Binding affinity against 5-hydroxytryptamine 1A receptor in rat hippocampus membranes using [3H]8-OH-DPAT as radioligand
Type: cell membranes, Membrane

Chains of the proteins cited; added tags and fusions are not shown.
UniProt P19327, whole entry: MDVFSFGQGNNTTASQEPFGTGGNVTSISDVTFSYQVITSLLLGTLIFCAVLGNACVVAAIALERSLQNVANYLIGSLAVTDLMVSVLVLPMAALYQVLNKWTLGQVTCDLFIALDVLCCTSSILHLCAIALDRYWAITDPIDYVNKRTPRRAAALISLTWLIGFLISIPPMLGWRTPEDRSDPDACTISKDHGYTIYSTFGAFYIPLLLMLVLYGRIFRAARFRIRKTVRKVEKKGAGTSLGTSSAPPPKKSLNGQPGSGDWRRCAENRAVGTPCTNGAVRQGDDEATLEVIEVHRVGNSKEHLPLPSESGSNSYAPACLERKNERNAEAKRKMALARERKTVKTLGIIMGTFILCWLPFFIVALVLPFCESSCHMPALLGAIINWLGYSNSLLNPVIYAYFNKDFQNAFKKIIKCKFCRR

Q: For `COc1ccccc1N1CCN(CCC(=O)NC2CCCc3c(OC)cccc32)CC1` (stereo unspecified), which IC50 is on record?
A: 38 nM
